In the supplement of paper PMC11451515:

Tests used:
NOMO1 = experiment: cell viability relative to DMSO control; higher = less cytotoxic; conditions: HPLM + 10% dialyzed FBS, 48 h
Summary of the method: (§1)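 Three leukemia lines were tested: NOMO1 and SEM at 500 cells/well and P12-Ichikawa at 1000 cells/well. Each was adapted for at least four passages in each medium and seeded in 5 μl in 1536-well plates, and library compounds in DMSO were pin-dosed from 47 μM to 0.79 nM in 11 threefold steps. After 48 h at 37°C, CellTiter-Glo One luminescence was read. Viability is a percentage relative to DMSO wells on each plate, with cell-free wells as background.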

P12-Ichikawa [1] = experiment: as above; conditions: HPLM + 10% dialyzed FBS, 48 h
Summary of the method: as §1

SEM cells = experiment: as above; conditions: 48 h
Summary of the method: as §1

P12-Ichikawa [2] = experiment: AUC of viability dose-response curve (% viability x log10 dose units); higher = less sensitive; conditions: 48 h
Summary of the method: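 Medium-adapted leukemia cells in 1536-well plates, at 500 or 1000 cells/well, were incubated for 48 h at 37°C with library compounds in DMSO at 11 threefold doses from 47 μM to 0.79 nM. CellTiter-Glo One luminescence normalised per plate to DMSO and cell-free wells was fitted with a four-parameter log-logistic model over log10 doses. Area under the curve was integrated from this fit by trapezoidal rule, with curves beyond full viability scaled and failed quality-control curves removed.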

NCc1ccc(OCCCc2sc(-c3ccc4c(c3)/C(=N/Nc3nc5ccccc5s3)CCC4)nc2C(=O)O)cc1
Conditions | AUC of viability dose-response curve, P12-Ichikawa [2] | cell viability, NOMO1 [%] | cell viability, P12-Ichikawa [1] [%]
0.000781 µM | – | 63.5 | 128
0.00234 µM | – | 49.7 | 123
0.00702 µM | – | 49 | 38.8
0.0211 µM | – | 45.4 | 28.6
0.0632 µM | – | 44 | 21.7
0.19 µM | – | 52.2 | 12.3
0.569 µM | – | 45.8 | 9.61
1.71 µM | – | 60.9 | 9.66
5.12 µM | – | 59.2 | 8.6
15.4 µM | – | 53.4 | 7.58
46.1 µM | – | 24.5 | 6.2
HPLM + 10% dialyzed FBS | 119 | – | –
RPMI 5 mM glucose + 10% FBS | 187 | – | –
RPMI 5 mM glucose + 10% dialyzed FBS | 144 | – | –

cell viability [%], SEM cells
Conditions | HPLM + 10% dialyzed FBS | RPMI 5 mM glucose + 10% FBS | RPMI 5 mM glucose + 10% dialyzed FBS
0.000781 µM | 118 | 77.4 | 136
0.00234 µM | 112 | 43.3 | 102
0.00702 µM | 90.7 | 38.1 | 72.5
0.0211 µM | 93.1 | 26 | 52.3
0.0632 µM | 24.9 | 24.9 | 27.4
0.19 µM | 27.4 | 23.5 | 32.9
0.569 µM | 25.2 | 26.4 | 25
1.71 µM | 28.1 | 26.5 | 30.4
5.12 µM | 23.6 | 18.6 | 25.9
15.4 µM | 21.6 | 12.7 | 12.7
46.1 µM | 7.64 | 6.57 | 6.97
